Data taken from US20200129597A1, “MODULATION OF FACTOR Xa INHIBITOR-MEDIATED BLOOD LOSS BY PARTIAL AND TRANSIENT ADMINISTRATION OF ANTIDOTE” (Portola Pharmaceuticals, Inc., priority 2012, published 2020).

The chains behind the UniProt entries cited, without tags or fusion partners. Residues count along the entry.
UniProt P00742, 41-179 limits assumed: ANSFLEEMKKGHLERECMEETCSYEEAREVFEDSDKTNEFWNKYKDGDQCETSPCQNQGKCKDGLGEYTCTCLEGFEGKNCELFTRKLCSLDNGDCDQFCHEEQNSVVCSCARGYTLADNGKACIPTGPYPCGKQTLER
UniProt P00742, 235-488 limits assumed: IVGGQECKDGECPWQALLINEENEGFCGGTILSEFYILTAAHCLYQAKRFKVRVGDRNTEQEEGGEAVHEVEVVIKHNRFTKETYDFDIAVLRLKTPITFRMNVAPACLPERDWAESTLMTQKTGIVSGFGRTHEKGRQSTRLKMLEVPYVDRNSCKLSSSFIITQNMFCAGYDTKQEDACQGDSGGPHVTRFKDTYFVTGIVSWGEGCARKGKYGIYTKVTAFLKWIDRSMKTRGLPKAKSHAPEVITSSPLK

Experiments:
[1] = system: blood loss; test: Rat tail transection model, r-Antidote bolus plus infusion after enoxaparin or fondaparinux; assay type: in vivo
Method: Enoxaparin (4.5 mg/kg) or vehicle was dosed by IV bolus over 5 min, followed by treatment with vehicle or two different doses of r-Antidotc (2 mg/rat bolus plus 2 mg/hr infusion and 4 mg/rat bolus plus 4 mg/hr infusion) starting at 10 min. Blood loss was measured for 15 min as described under Methods section. […] Blood loss was measured as in FIG. 16A. Protamine was dosed as an IV bolus only (0.9 mg/rat). […] The anti-fXa activity in fondaparinux anticoagulated rats (FIG. 16B) at different time points are presented for Treat-I: (not shown in anti-fXa), Treat-II (□), Treat-III (⋄), and Treat-IV (∇). Anti-fXa activity was normalized to the activity of Treat-II at 5 min time point. *** P-value (Treat-III vs. Treat-II)≤0.0001.
In this example, the ability of r-Antidote to restore hemostasis in a rat tail transection model following treatment with enoxaparin or fondaparinux was tested. Unlike in the case of rivaroxaban, administration of enoxaparin or fondaparinux without concomitant administration of anti-platelet agent was sufficient to establish a reproducible pattern of bleeding in the animals. […] In parallel to corrections in blood loss, the anti-fXa activity was reduced in a dose-dependent manner (data not shown).
The collected blood samples were processed by freezing the samples at −80° C. to lyse erythrocytes. Hemoglobin concentration and corresponding blood volume were quantified spectrophotometrically (Absorbance at 490 nm) from a standard curve constructed with known volumes of blood.

[2] = Single ascending dose study in healthy volunteers: pharmacokinetics; assay type: in vivo, human
[3] = Single ascending dose study: safety
[4] = Single ascending dose study: thrombin generation and anti-fXa activity with exogenous rivaroxaban in subject plasma; assay type: in vivo, human; details: exogenous rivaroxaban 50 ng/mL added to subject plasma
[5] = biological target: T1, purified human plasma fXa (Homo sapiens, UniProt P00742); test: fXa enzyme assay: reversal of direct fXa inhibitors by r-Antidote (Dynafit); assay type: biochemical
T1 construct: FXa contains a light chain and a heavy chain; purchased Haematologic Technologies; host or cells: human plasma (plasma-derived)
Method: (§1) The lines represent the best fittings; Kd and Ki values are listed. mOD min^−1=miliOptical Density per minute. […] Grey bar: Control plasma alone (PPP), Filled bar: rivaroxaban or rivaroxaban+r-antidote, Open bar: Control plasma+r-antidote. […] Thrombin generation was initiated by addition of Ca^2+ and tissue factor (TF). Cleavage of thrombin specific substrate Z-GGR-AMC (RFU=Relative Fluorescence Units) was measured at 37° C. for 10 min.
After incubation at room temperature (RT) for 30 min, 100 μM Spectrozyme-fXa (available commercially from American Diagnostica) was added to the mixture and initial rate of substrate cleavage was monitored continuously for 5 min at 405 nm in a 96-well plate reader. […] Betrixaban was synthesized according to methods known in the art. Rivaroxaban and apixaban can be purchased commercially from, for example, J Star Research and American Custom Chemicals Corporation.

[6] = system: prothrombin time (PT); test: Prothrombin time in human plasma in vitro; assay type: biochemical
Method: as §1
For human in vitro and rat ex vivo experiments, PT was measured using MLA Electra 800 automatic coagulation timer. Innovin was automatically dispensed to plasma samples (100 μL) per manufacturer's instructions. […] For rabbit experiments, PT and aPTT were measured using a Beckman Coulter ACL Elite instrument with HemosIL reagents (available commercially from Instrumentation Laboratories). Whole blood INR (International Normalized Ratio) for animal samples were measured by Hemchron Jr. Signature Cartridges (International Technidyne Corporation) according to manufacturer's instructions.

[7] = system: blood loss; test: Rat tail transection blood loss model, prophylactic r-Antidote after enoxaparin; assay type: in vivo; details: bolus only and bolus plus infusion regimens, equally effective
Method: Then, tail transection was initiated another 5 min later, and cumulative blood loss was measure for up to 45 minutes.

B1: r-Antidote: processed two-chain polypeptide of SEQ ID NO: 3; modified, catalytically inactive human recombinant fXa lacking the Gla domain (protein)
chain: ANSFLFWNKYKDGDQCETSPCQNQGKCKDGLGEYTCTCLEGFEGKNCELFTRKLCSLDNGDCDQFCHEEQNSVVCSCARGYTLADNGKACIPTGPYPCGKQTLERIVGGQECKDGECPWQALLINEENEGFCGGTILSEFYILTAAHCLYQAKRFKVRVGDRNTEQEEGGEAVHEVEVVIKHNRFTKETYDFDIAVLRLKTPITFRMNVAPACLPERDWAESTLMTQKTGIVSGFGRTHEKGRQSTRLKMLEVPYVDRNSCKLSSSFIITQNMFCAGYDTKQEDACQGDAGGPHVTRFKDTYFVTGIVSWGEGCARKGKYGIYTKVTAFLKWIDRSMKTRGLPKAKSHAPEVITSSPLK
modifications: processed two-chain form
With B1 the “correction in blood loss” value ([1]; enoxaparin 4.5 mg/kg, r-Antidote 2 mg/rat bolus plus 2 mg/hr infusion) was 42%, the “correction of increase in blood loss” value ([1]; enoxaparin 4.5 mg/kg, r-Antidote 4 mg/rat bolus plus 4 mg/hr infusion) was “completely corrected the increase in blood loss to baseline levels” and the effect on bleeding ([1]; fondaparinux 25 mg/kg, r-Antidote 6 mg/rat bolus plus 6 mg/hr infusion) was “complete cessation of bleeding”. The Cmax ([2]; 600 mg dose) was 2200 nM, the “AUC and Cmax dose proportionality” value ([2]; 30, 90, 300, 600 mg) was “increased disproportionately relative to dose” and the “terminal t½” value ([2]; healthy volunteers, single IV bolus 30-600 mg) was roughly 6 h. For the same molecule, the “non-serious infusion-related reactions without anaphylaxis (number)” value ([3]; 90 mg (2) and 300 mg (1)) was 3, the “thrombotic adverse events or deaths” value ([3]; healthy volunteers, 30-600 mg) was “no thrombotic adverse events or deaths” and the “Prothrombin fragment 1+2, thrombin-antithrombin complex, and D-dimer” value ([3]; in vivo) was “increased with dose”. For the same molecule, the “serious adverse events (number)” value ([3]; pneumonia, 30 mg) was 1, the “thrombin generation and anti-fXa activity of rivaroxaban” value [4] was “reversed in a dose-dependent manner” and the “affinities of r-Antidote for the direct fXa inhibitors (Kd)” value ([5]; betrixaban, rivaroxaban and apixaban) was “sub-nanomolar”. For the same molecule, the “change in fXa activity in the absence of inhibitor” value ([5]; r-Antidote 0-250 nM) was “did not produce any change in fXa activity”, the “correction of rivaroxaban PT prolongation” value ([6]; approximately equal molar concentration of r-Antidote, rivaroxaban 1 μM) was “corrected to baseline levels” and the “effect of r-Antidote alone on clotting time” value ([6]; highest concentration tested) was “did not change clotting time”. The “blood loss compared with vehicle (no enoxaparin)” value [7] was “no blood loss greater than vehicle”.
